Source: US20250213705A1, “PSMA TARGETING LIGANDS AND METHODS OF USE” (Bright Peak Therapeutics AG, priority 2023, published 2025)

The chains behind the UniProt entries cited, without tags or fusion partners.
UniProt Q04609, whole entry: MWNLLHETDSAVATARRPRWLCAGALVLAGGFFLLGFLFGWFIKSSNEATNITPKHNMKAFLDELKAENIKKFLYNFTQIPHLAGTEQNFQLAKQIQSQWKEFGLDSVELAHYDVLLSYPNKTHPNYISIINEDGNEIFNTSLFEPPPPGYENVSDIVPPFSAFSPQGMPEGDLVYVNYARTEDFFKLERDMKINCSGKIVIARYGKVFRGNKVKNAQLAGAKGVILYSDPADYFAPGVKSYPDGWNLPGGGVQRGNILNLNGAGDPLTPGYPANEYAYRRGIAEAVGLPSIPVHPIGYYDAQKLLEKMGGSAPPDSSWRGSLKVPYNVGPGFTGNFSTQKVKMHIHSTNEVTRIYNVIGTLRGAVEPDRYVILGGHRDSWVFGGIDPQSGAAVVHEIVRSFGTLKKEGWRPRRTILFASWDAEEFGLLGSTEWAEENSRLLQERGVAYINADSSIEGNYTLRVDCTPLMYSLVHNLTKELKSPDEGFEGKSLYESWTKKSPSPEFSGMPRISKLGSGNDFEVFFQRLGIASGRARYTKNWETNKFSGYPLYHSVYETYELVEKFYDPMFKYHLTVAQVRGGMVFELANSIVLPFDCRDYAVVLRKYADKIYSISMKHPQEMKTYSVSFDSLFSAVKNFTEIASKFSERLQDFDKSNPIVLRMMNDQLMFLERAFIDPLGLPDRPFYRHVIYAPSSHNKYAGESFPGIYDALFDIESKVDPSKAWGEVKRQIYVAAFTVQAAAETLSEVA

Target: human FOLH1 (Homo sapiens (Human), UniProt Q04609)
Assay: SPR analysis of binding kinetics to biotinylated FOLH1 (Biacore 8K)
Settings: ligand PSMA, dissociation rate
Procedure: The interaction of PSMA-binding variants with human FOLH1 was measured with Surface Plasmon Resonance (SPR) technology. Biotinylated FOLH1 was captured at a concentration of 30 μg/mL onto a Streptavidin chip.
Binding kinetics of the analytes were measured with a Biacore 8K instrument in two-fold serial dilutions starting at 500 nM down to 1.95 nM in single cycle kinetic measurements. After each cycle, needles were washed with 50% DMSO. To measure the association to the FOLH1 protein, the samples were injected with a flow rate of 30 μL/min for 90 s, followed by 1200 s buffer only to detect the dissociation. The used running buffer was 1×PBS with 0.05% Tween20 and 2% DMSO. The relative response units (RU, Y-axis) are plotted against time (s, X-axis) and analyzed in a kinetic 1:1 binding model.
In a different setup, biotinylated FOLH1 was captured at a concentration of 0.8 μg/mL and the running buffer was 1×PBS with 0.05% Tween20.

SMILES | koff [s⁻¹]
CC(=O)NCCOCCOCCOCCC(=O)NC[C@H]1CC[C@H](C(=O)N[C@@H](Cc2ccc3ccccc3c2)C(=O)NCCCC[C@H](NC(=O)N[C@@H](CCC(=O)O)C(=O)O)C(=O)O)CC1 [Compound 8] | 0.000104
CC(=O)NCCOCCOCCOCCC(=O)NC[C@H]1CC[C@H](C(=O)N[C@@H](Cc2cccc(C(=O)O)c2)C(=O)NCCCC[C@H](NC(=O)N[C@@H](CCC(=O)O)C(=O)O)C(=O)O)CC1 [Compound 10] | 0.000262
